Laboratory results: ChEMBL document CHEMBL1800007, “Synthesis, activity, and structural analysis of novel α-hydroxytropolone inhibitors of human immunodeficiency virus reverse transcriptase-associated ribonuclease H” (J Med Chem, 2011)

Each compound was assayed against Human immunodeficiency virus type 1 reverse transcriptase (Human immunodeficiency virus 1) (UniProt Q72547). Details: HXB2, at 20 µM.
For Cc1cc(O)c(=O)c(O)c2c1C[C@@H](C(C)(O)CN1CCCCC1)CC2 (mixture of isomers), the inhibition was “inactive”.
In the case of Cc1cc(O)c(=O)c(O)c2c1C[C@@H](C(C)(O)CNCc1ccccc1F)CC2 (mixture of isomers), the inhibition is reported as “inactive”.
For Cc1cc(O)c(=O)c(O)c2c1C[C@@H](C(C)(O)CNc1ccccc1)CC2 (mixture of isomers), the inhibition was “inactive”.
In the case of CCSCC(C)(O)[C@H]1CCc2c(c(C)cc(O)c(=O)c2O)C1 (mixture of isomers), the inhibition is reported as “inactive”.
With Cc1cc(O)c(=O)c(O)c2c1C[C@@H](C(C)(O)CSc1ccccc1)CC2 (mixture of isomers) the inhibition was “inactive”.
Cc1cc(O)c(=O)c(O)c2c1C[C@@H](C(C)(O)CSCc1ccccc1)CC2 (mixture of isomers) was tested, and the inhibition was “inactive”.
With CCS(=O)(=O)CC(C)(O)[C@H]1CCc2c(c(C)cc(O)c(=O)c2O)C1 (mixture of isomers) the inhibition was “inactive”.
For Cc1cc(O)c(=O)c(O)c2c1C[C@@H](C(C)(O)C[S+]([O-])c1ccccc1)CC2 (mixture of isomers), the inhibition was “inactive”.
For Cc1cc(O)c(=O)c(O)c2c1C[C@@H](C(C)(O)CS(=O)(=O)c1ccccc1)CC2 (mixture of isomers), the inhibition was “inactive”.
In the case of Cc1cc(O)c(=O)c(O)c2c1C[C@@H](C(C)O)CC2 (mixture of isomers), the inhibition is reported as “inactive”.
In the case of Cc1cc(O)c(=O)c(O)c2c1C[C@@H](C(C)NCc1ccccc1)CC2 (mixture of isomers), the inhibition is reported as “inactive”.

Active and inactive are the calls of the source. No cut-off for these calls is given here.
